ChEMBL document CHEMBL5104186, “Structure-Activity Relationship and Neuroprotective Activity of 1,5-Dihydro-2H-naphtho[1,2-b][1,4]diazepine-2,4(3H)-diones as P2X4 Receptor Antagonists” (J Med Chem, 2022)

Protein sequences, listed by entry. Tags and fused reporters are not part of them. Lines headed by an entry give the natural chain unless they say otherwise; changes in a name come on top.
UniProt Q9UBL9: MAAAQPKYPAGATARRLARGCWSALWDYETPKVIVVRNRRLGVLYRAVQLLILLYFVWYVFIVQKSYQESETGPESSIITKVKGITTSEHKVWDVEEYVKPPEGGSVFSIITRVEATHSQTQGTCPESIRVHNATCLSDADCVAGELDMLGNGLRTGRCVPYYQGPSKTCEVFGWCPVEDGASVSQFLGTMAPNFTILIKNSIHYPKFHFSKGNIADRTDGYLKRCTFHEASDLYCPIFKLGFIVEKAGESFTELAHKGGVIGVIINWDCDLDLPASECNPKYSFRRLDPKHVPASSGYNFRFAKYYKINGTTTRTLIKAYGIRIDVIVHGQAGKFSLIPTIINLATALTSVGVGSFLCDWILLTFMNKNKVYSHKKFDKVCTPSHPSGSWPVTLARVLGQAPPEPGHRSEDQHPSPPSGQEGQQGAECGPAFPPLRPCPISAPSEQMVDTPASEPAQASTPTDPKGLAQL

Experiments:
Format in all cases: cell-based
Parameters in all cases: scale not given: the % may be the effect or the level left
[1] = biological target: T1, P2X purinoceptor 1 (Homo sapiens) (UniProt P51575); test: Antagonist activity at human P2X1R transfected in CHO-K1 cells at 30 uM preincubated for 30 mins followed by alpha,beta-meATP addition by […] based assay relative to control
T1 sequence (whole entry): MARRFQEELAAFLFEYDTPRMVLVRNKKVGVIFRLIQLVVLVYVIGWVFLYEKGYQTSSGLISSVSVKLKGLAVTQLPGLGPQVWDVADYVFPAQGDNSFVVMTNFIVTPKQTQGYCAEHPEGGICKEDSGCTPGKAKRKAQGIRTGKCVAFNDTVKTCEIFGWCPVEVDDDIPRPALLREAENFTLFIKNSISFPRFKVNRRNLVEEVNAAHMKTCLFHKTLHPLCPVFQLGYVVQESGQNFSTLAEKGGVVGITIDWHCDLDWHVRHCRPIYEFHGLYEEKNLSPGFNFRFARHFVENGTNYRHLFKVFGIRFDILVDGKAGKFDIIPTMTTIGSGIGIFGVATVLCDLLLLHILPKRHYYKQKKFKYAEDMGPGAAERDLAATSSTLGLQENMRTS

[2] = biological target: P2X2/P2X3 heterotrimeric receptor (Homo sapiens) (UniProt Q9UBL9+P56373); test: Antagonist activity at human P2X2/3R transfected in CHO-K1 cells at 30 uM preincubated for 30 mins followed by alpha,beta-meATP addition by fluorescence based assay relative to control
[3] = biological target: T2, P2X purinoceptor 3 (Homo sapiens) (UniProt P56373); test: Antagonist activity at human P2X3R transfected in CHO-K1 cells at 30 uM preincubated for 30 mins followed by alpha,beta-meATP addition by fluorescence based assay relative to control
T2 sequence (whole entry): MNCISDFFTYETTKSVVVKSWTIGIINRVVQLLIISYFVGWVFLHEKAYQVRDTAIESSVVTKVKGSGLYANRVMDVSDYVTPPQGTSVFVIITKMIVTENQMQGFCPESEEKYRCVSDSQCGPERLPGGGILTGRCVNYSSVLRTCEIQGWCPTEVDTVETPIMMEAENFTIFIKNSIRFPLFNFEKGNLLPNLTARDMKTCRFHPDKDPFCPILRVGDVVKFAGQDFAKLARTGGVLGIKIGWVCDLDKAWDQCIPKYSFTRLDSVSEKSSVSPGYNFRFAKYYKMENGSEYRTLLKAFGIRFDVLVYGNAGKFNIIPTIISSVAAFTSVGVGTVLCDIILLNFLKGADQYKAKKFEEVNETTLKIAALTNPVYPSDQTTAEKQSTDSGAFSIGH

Row | SMILES | Activity [1] [%] | Activity [2] [%] | Activity [3] [%]
1 | Cc1ccc2c3c(ccc2c1)N(c1cccc(-c2noc(=S)[nH]2)c1)C(=O)CC(=O)N3 | -4 | 11 | 6
2 | CCN(CC)CC.O=C1CC(=O)N(c2ccnc(-c3noc(=S)[nH]3)c2)c2ccc3ccccc3c2N1 | 15 | 0 | 11
3 | O=C1CC(=O)N(c2cccc(-c3noc(=S)[nH]3)c2)c2cc(Br)c3ccccc3c2N1 | 5 | 11 | 7
4 | Cc1ccc2ccc3c(c2c1)NC(=O)CC(=O)N3c1cccc(-c2noc(=S)[nH]2)c1 | 6 | 9 | 13
